2 molecules from BindingDB's records for doi:10.1021/jm00049a020 (Pharmacia-Farmitalia Carlo Erba, 1994) can be followed below.

In the assay the target is T1, Neutrophil elastase (Homo sapiens, UniProt P08246).
T1 sequence (P08246 whole entry): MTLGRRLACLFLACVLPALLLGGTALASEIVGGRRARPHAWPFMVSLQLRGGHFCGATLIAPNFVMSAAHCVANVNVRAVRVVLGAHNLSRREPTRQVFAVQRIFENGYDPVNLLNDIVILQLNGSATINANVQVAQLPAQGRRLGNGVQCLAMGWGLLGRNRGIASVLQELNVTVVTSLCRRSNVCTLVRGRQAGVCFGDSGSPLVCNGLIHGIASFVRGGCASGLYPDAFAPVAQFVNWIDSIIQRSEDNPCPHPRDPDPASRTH
The assay can be described thus: Tested for the rate constant against Human Leukocyte Elastase (HLE) inactivation. The note with it: read-out: kon (M-1-s-1). In outline:
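HLE from human sputum, active-site titrated with MeO-Suc-Ala-Ala-Pro-Val-CH2Cl; 1–3 nM active enzyme. […] Substrate and inhibitor concentrations varied to derive kon and Ki(ss).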

For orientation: kon means the second-order rate constant of association. `CO[C@H]1C(=O)N2C(C(=O)C(C)(C)C)=C(CSc3nnnn3C)CS(=O)(=O)[C@H]12` [(6R,7S)-2-(2,2-Dimethyl-propionyl)-7-methoxy-3-(1-methyl-1H-tetrazol-5-ylsulfanylmethyl)-5,5-dioxo-5lambda*6*-thia-1-aza-bicyclo[4.2.0]oct-2-en-8-one]: the kon is 19000 M⁻¹ s⁻¹. Under `CO[C@H]1C(=O)N2C(C(=O)c3ccccc3)=C(CSc3nnnn3C)CS(=O)(=O)[C@H]12` [(6R,7S)-2-Benzoyl-7-methoxy-3-(1-methyl-1H-tetrazol-5-ylsulfanylmethyl)-5,5-dioxo-5lambda*6*-thia-1-aza-bicyclo[4.2.0]oct-2-en-8-one] stands 18000 M⁻¹ s⁻¹.
